The results in this text go back to PubChem BioAssay AID720504 (National Center for Advancing Translational Sciences (NCATS), 2013).

Sequences of proteins named here, by UniProt entry; tags and fusion partners are left off.
UniProt P53350, whole entry: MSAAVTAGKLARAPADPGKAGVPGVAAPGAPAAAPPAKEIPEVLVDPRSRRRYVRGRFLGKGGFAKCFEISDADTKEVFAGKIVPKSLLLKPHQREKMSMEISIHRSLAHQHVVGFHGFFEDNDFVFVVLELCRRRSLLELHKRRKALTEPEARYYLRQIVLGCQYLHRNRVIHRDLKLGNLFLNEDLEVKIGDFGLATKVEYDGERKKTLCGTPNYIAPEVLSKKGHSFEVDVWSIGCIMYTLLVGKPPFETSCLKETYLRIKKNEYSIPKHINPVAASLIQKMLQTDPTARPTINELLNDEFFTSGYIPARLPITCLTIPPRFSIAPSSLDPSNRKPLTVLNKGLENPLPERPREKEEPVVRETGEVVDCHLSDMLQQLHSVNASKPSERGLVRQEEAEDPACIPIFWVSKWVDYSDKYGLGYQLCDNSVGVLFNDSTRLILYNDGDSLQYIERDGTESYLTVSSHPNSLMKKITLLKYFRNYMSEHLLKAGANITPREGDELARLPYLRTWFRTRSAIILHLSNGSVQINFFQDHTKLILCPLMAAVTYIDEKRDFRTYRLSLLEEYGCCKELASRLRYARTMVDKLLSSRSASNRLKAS

SMILES strings stand for the structures. This is a selection; strong and weak results do not stand in their true shares. Records with an inconclusive call do not appear. Calls of active or inactive are those of the source. The call rests on the fitted dose curve; in most records, active means well fitted inhibition curve with a large enough effect; inconclusive means small, poorly fitted or top-dose-only effect; inactive means flat fitted curve, though single readings scatter.
On the % scale 0 is the no-effect control and ±100 the full control effect.

For this assay, the target named is Serine/threonine-protein kinase PLK1 (Homo sapiens) (UniProt P53350). The assay is described as follows: qHTS for Inhibitors of PLK1-PDB (polo-like kinase 1 - polo-box domain): Primary Screen. Further: series mostly up to about 57 µM; nearly all actives have a fitted effect of over 65% in size. As to conditions: Plk1 PBD binding of FITC phosphopeptide, fluorescence polarization. (In general: qHTS replaces the single test concentration by a dilution series.)
On to `O=C(NCC1(N2CCCCC2)CCCCC1)c1ccc(Cl)s1`, for which the max response, negative = inhibition was inactive: -3.81%.

Turning to `N#CC1(Nc2ccccc2)CCN(Cc2ccccc2)CC1`, the max response, negative = inhibition was inactive: -20.7%.

With `COc1ccc(Cl)cc1C(=O)NCC1(N2CCOCC2)CCCCC1`, the max response, negative = inhibition was inactive: 6.35%.

For `CCOC(=O)N1CCC(Nc2ccc(OC)cc2)CC1`, the max response, negative = inhibition is inactive: -9.44%.

In the case of `CCCCn1nnnc1C(c1ccc(OC)cc1)N1CCC(n2c(=O)[nH]c3ccccc32)CC1` (stereo not drawn), the max response, negative = inhibition is inactive: -15.9%.

For `COc1ccc(C(=O)NCC2(N3CCCCC3)CCCCC2)cc1`, the max response, negative = inhibition is inactive: -6.57%.

For `CCC(c1nnnn1C1CCCC1)N1CCC(n2c(=O)[nH]c3ccccc32)CC1` (stereo not drawn), the max response, negative = inhibition is inactive: 7.43%.

In the case of `CC(C)(C)OC(=O)N1CCC(N(C(=O)c2ccccc2)c2ccc(F)cc2)CC1`, the max response, negative = inhibition was inactive: -3.07%.

As to `COc1ccc(C(=O)NCC2(N3CCCCC3)CCCCC2)c(OC)c1OC`, the max response, negative = inhibition was inactive: 0%.

Take `O=C(NCC1(N2CCCCC2)CCCCC1)c1ccc(=O)[nH]c1`: the max response, negative = inhibition was inactive: 0.493%.

As to `CCCCn1nnnc1C(c1cccs1)N1CCC(n2c(=O)[nH]c3ccccc32)CC1` (stereo not drawn), the max response, negative = inhibition was inactive: -14.8%.

As for `O=C(NCC1(N2CCCCC2)CCCCC1)c1cccs1`, the max response, negative = inhibition was inactive: -5.03%.

As to `CCCCn1nnnc1C(CC)N1CCC(n2c(=O)[nH]c3ccccc32)CC1` (stereo not drawn), the max response, negative = inhibition was inactive: 3.96%.

In the case of `CSc1ccccc1C(=O)NCC1(N2CCCCC2)CCCCC1`, the max response, negative = inhibition is inactive: -19.4%.

On to `Cc1cccc(NC2(C#N)CCN(Cc3ccccc3)CC2)c1`, for which the max response, negative = inhibition is inactive: 3.59%.

In the case of `O=c1[nH]c2ccccc2n1C1CCN(C(c2ccccc2)c2nnnn2C2CCCCC2)CC1` (stereo not drawn), the max response, negative = inhibition is inactive: 3.97%.

`COc1cc(C(=O)NCC2(N(C)C)CCCCC2)ccc1OC(F)F`: the max response, negative = inhibition was inactive: -15.4%.

Take `CCOC(=O)N1CCC(Nc2cccc(C)c2)CC1`: the max response, negative = inhibition was inactive: 5.8%.

As to `O=c1[nH]c2ccccc2n1C1CCN(C(c2cccc3ccccc23)c2nnnn2C2CCCC2)CC1` (stereo not drawn), the max response, negative = inhibition was inactive: -0.815%.

With `CC(C)(C)n1nnnc1C(c1ccccc1)N1CCC(n2c(=O)[nH]c3ccccc32)CC1` (stereo not drawn), the max response, negative = inhibition is inactive: 1.1%.

For the compound `O=C1CCN(Cc2ccccc2)CC1`, the max response, negative = inhibition was inactive: -3.86%.

For `CCOc1ccc(C)cc1CN(CCCl)CCCl`, the max response, negative = inhibition is inactive: -28.7%.

For `O=C(NCC1(N2CCCCC2)CCCCC1)c1ccc(F)cc1`, the max response, negative = inhibition was inactive: -5.45%.

Regarding `CCCCOc1ccc(C(=O)NCC2(N3CCOCC3)CCCCC2)cc1`, the max response, negative = inhibition is inactive: -11.6%.

With `CCCCn1nnnc1C(c1cc2ccccc2o1)N1CCC(n2c(=O)[nH]c3ccccc32)CC1` (stereo not drawn), the max response, negative = inhibition is inactive: 0.795%.

As to `O=P1(N(CCCl)CCCl)SCCCS1`, the max response, negative = inhibition is inactive: -0.641%.

With `CCOC(=O)N1CCC(Nc2ccc(F)cc2)CC1`, the max response, negative = inhibition was inactive: 0.899%.

Turning to `COc1ccc(NC2CCN(CCc3ccccc3)CC2)c(OC)c1`, the max response, negative = inhibition was inactive: -5.9%.
